Measurements taken from PubChem BioAssay (Tox21).
Where “and” joins values, the source holds several entries; their conditions need not be identical. Identical values can stand only once. Listed are the inconclusive results; actives and inactives stand elsewhere. Unless noted, calls come from the whole dose curve.

Chains of the proteins cited; added tags and fusions are not shown. Lines headed by an entry give the natural chain unless they say otherwise; changes in a name come on top.
UniProt P04150: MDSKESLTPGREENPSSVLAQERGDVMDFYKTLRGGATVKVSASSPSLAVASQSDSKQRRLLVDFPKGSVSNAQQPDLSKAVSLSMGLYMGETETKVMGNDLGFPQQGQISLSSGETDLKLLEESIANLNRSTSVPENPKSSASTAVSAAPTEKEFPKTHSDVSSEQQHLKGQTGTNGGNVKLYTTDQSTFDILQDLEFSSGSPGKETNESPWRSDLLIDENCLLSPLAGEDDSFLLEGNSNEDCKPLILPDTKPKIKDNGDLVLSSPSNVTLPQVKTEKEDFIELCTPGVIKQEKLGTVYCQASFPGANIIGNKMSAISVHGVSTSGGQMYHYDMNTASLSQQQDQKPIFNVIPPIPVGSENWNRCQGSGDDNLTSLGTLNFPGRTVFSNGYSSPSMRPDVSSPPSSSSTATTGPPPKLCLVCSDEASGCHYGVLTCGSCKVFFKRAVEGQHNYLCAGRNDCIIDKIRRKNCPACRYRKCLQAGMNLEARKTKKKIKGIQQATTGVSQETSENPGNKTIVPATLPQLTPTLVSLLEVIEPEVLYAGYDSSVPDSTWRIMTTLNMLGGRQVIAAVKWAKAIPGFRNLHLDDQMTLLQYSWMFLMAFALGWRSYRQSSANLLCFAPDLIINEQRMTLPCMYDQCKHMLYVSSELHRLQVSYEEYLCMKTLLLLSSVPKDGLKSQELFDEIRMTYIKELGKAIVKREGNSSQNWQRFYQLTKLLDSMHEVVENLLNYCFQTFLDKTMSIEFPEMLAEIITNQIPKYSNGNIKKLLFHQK
UniProt P19793: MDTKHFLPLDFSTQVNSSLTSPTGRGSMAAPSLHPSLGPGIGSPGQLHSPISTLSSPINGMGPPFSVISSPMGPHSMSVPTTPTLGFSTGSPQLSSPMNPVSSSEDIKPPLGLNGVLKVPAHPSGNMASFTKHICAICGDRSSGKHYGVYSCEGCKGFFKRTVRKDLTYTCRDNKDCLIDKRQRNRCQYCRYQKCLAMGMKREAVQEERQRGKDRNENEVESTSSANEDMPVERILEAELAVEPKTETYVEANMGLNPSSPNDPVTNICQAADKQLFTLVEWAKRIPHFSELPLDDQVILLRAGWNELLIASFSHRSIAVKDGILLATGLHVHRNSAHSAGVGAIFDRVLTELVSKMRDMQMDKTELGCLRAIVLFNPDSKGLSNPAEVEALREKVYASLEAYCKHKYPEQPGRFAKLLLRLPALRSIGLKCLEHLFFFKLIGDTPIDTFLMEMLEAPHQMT
UniProt P16473, whole entry, looked up: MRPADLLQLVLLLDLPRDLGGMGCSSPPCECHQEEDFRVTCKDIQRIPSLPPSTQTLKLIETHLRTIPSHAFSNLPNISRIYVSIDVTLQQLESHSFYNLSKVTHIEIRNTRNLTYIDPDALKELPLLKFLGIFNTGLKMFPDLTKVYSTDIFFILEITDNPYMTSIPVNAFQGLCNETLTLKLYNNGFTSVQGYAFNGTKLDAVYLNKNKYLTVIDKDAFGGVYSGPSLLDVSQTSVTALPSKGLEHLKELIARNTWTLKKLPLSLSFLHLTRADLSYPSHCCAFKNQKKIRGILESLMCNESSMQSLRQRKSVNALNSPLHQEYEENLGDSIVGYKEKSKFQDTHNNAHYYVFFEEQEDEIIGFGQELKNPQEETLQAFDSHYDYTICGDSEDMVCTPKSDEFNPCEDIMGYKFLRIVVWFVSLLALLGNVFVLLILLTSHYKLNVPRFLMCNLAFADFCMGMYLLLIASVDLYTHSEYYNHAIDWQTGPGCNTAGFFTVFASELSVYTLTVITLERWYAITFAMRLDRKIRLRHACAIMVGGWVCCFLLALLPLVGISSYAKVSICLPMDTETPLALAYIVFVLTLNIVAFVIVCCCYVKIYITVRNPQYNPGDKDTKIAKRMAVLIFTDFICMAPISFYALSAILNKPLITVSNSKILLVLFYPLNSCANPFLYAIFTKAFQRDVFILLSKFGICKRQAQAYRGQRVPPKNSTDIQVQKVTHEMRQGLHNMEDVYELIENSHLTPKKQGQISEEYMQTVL
UniProt Q12809: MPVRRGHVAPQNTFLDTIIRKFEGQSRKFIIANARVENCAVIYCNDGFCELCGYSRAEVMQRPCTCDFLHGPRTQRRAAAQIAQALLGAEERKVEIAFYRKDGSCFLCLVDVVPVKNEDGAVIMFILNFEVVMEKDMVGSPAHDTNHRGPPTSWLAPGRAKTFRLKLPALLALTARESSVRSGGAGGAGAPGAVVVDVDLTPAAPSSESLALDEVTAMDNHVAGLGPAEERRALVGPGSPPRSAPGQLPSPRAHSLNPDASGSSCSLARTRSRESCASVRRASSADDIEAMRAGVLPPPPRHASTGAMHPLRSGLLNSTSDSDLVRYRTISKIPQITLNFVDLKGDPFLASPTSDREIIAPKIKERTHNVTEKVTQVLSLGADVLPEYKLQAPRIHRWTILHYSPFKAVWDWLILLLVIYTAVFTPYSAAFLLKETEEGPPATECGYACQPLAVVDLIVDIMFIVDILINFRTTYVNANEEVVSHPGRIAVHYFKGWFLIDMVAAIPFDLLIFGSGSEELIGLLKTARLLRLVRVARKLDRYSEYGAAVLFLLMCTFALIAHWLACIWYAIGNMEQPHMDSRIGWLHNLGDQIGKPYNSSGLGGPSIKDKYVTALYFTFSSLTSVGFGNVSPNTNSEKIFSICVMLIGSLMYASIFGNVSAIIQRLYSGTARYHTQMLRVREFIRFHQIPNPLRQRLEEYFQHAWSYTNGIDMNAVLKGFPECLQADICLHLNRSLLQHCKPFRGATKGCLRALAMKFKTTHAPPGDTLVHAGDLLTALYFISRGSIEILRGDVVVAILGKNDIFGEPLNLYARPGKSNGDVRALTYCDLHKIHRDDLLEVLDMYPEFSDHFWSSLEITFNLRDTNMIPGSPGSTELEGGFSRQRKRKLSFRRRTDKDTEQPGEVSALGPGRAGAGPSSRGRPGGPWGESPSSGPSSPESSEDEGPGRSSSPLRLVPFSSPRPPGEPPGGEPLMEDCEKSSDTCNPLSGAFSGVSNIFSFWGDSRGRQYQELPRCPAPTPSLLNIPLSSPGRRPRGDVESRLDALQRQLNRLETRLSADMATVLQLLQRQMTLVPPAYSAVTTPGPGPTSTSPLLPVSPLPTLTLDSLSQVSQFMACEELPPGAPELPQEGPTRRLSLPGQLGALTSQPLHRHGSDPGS
UniProt P33261, whole entry, looked up: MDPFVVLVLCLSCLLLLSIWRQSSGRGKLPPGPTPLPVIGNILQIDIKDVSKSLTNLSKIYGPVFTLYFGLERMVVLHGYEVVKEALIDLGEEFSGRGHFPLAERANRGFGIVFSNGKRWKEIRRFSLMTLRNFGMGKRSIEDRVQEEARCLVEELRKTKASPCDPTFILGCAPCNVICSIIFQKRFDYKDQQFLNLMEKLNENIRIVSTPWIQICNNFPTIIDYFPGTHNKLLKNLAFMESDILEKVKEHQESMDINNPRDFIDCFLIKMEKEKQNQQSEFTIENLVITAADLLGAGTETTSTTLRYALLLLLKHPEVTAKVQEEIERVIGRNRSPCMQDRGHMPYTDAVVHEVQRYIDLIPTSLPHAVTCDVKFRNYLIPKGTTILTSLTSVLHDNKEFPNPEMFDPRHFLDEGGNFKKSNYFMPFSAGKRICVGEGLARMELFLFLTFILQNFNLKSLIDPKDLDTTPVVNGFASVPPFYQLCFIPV
UniProt P11473: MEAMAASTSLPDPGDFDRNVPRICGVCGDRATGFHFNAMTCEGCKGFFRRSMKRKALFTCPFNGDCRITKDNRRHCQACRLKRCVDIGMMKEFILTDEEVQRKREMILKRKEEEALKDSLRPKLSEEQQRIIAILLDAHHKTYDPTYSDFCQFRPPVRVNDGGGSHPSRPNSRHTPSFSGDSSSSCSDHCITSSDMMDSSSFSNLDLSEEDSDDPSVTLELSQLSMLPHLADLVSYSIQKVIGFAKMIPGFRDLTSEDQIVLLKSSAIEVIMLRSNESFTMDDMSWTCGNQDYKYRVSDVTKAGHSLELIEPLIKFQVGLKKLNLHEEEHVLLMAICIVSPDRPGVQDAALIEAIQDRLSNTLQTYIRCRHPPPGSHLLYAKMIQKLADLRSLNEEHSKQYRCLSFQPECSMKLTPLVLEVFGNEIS
UniProt P05177, whole entry, looked up: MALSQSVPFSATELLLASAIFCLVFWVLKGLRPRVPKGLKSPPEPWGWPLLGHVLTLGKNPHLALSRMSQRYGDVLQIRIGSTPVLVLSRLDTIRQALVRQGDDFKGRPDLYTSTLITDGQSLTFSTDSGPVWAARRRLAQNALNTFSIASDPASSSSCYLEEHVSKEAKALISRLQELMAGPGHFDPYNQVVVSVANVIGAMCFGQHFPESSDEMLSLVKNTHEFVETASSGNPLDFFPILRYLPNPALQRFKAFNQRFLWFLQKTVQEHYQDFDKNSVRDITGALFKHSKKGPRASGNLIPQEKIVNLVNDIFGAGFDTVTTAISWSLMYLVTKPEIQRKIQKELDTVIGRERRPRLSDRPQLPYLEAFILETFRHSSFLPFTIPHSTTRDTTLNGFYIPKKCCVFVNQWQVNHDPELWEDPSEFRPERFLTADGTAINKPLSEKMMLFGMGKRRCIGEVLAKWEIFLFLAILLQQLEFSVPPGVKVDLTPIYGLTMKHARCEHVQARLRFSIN
UniProt P11712, whole entry, looked up: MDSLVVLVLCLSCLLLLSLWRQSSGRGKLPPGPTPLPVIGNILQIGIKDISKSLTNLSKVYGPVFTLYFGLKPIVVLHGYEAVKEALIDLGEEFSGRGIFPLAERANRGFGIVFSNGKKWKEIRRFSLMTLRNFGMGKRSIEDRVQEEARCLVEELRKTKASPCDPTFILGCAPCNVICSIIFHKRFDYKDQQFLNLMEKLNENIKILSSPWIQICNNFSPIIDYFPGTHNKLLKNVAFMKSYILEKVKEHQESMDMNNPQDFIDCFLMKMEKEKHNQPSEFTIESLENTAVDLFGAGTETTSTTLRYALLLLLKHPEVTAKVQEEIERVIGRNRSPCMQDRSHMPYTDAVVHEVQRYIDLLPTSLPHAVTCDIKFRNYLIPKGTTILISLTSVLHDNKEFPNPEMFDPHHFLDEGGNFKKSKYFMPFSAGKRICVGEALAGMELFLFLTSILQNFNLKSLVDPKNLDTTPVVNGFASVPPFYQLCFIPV
UniProt Q96RI1: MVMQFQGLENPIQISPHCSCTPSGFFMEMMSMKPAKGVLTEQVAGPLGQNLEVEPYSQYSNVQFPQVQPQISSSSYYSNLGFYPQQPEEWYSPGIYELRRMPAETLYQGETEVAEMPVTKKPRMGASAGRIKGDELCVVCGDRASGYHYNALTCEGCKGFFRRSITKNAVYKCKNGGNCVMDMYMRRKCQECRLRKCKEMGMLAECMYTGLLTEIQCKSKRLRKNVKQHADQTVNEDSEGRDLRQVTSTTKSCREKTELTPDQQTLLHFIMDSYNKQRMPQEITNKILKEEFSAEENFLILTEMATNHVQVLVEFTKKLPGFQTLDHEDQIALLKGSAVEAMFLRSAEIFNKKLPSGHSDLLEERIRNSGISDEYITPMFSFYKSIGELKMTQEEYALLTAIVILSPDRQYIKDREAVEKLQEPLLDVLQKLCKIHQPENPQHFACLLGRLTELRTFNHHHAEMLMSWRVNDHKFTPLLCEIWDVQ
UniProt Q92731, whole entry, looked up: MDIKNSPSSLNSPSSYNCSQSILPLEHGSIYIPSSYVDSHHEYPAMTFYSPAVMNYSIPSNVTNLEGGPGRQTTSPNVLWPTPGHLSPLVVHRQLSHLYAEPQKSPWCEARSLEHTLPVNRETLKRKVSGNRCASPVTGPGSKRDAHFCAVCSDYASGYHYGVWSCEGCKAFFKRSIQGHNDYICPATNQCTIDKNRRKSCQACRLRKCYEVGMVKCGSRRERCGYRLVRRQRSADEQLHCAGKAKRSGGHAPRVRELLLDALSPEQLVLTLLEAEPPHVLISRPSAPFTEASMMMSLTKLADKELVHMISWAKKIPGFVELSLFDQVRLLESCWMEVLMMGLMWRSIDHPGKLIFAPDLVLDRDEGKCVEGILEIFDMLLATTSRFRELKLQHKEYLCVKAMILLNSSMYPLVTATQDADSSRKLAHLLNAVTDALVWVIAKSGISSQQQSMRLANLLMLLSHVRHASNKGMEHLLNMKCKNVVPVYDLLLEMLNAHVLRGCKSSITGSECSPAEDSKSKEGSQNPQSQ
UniProt P34981: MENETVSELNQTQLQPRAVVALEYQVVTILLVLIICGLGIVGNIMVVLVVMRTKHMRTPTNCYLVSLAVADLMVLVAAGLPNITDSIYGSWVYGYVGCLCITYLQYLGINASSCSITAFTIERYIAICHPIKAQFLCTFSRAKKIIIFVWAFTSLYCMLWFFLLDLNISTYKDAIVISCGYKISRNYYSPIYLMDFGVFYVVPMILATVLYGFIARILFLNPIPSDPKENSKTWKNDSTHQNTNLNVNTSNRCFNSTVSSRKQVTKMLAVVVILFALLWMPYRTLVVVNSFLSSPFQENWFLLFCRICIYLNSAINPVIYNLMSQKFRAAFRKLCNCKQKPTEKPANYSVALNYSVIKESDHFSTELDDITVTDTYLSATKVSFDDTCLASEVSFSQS

Assays:
[1] = target: Glucocorticoid receptor (Homo sapiens) (UniProt P04150); experiment: qHTS assay to identify small molecule agonists of the glucocorticoid receptor (GR) signaling pathway (AID 720691; active = well fitted activation curve with a large enough effect in the signal ratio in the repeat runs, not every such curve was filed as active; inconclusive = weak or mixed curves, or effect the other way; inactive = no such curve, though single readings can be large or run the other way; the % refers to the signal ratio; note: potency is the fitted concentration of half-maximal effect); settings: GR-bla HeLa, beta-lactamase reporter ratio, 18 h
[2] = target: Glucocorticoid receptor (Homo sapiens) (UniProt P04150); experiment: qHTS assay to identify small molecule antagonists of the glucocorticoid receptor (GR) signaling pathway (AID 720692; active = well fitted inhibition curve with a large enough effect in the signal ratio in the repeat runs, not every such curve was filed as active; inconclusive = weak or mixed curves, or effect the other way; inactive = no such curve, though single readings can be large or run the other way; the % refers to the signal ratio; note: potency is the fitted concentration of half-maximal effect); settings: GR-bla HeLa, beta-lactamase FRET ratio, dexamethasone-stimulated, 18 h; activity change, negative = inhibition: at 58.5 µM (top of the series)
[3] = tested on: thyroid hormone receptor (rat, GH3 cells); experiment: qHTS assay to identify small molecule agonists of the thyroid receptor (TR) signaling pathway (AID 743066); settings: GH3.TRE-Luc cells, TR agonist luciferase, 24 h; activation: at 83.9 µM (top of the series); note: potency is the fitted concentration of half-maximal effect
[4] = qHTS assay to identify small molecule agonists of the AP-1 signaling pathway (AID 1159526); settings: ME-180 (cervical carcinoma) AP-1-bla reporter, beta-lactamase FRET ratio, 5 h; activation: at 76.8 µM (top of the series); note: potency is the fitted concentration of half-maximal effect
[5] = target: Retinoic acid receptor RXR-alpha (Homo sapiens) (UniProt P19793); experiment: qHTS assay to identify small molecule agonists of the RXR signaling pathway (AID 1159527); settings: HEK293T RXRa-UAS-bla, beta-lactamase ratio, 16 h; activation: at 76.8 µM (top of the series); note: potency is the fitted concentration of half-maximal effect; nearly all actives have a fitted effect of over 35% in size
[6] = qHTS assay to identify small molecule agonists of the retinoic acid receptor (RAR) signaling pathway (AID 1159553; active = well fitted curve in the direction sought with a large enough effect in the repeat runs; inconclusive = weak or mixed curves; inactive = no such curve, though single readings can be large; an effect the other way counts as inactive or inconclusive; note: potency is the fitted concentration of half-maximal effect); settings: C3RL4 RARE luciferase reporter, agonist, 6 h; activation: at 73.3 µM (top of the series)
Outline: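 Reporter readout comes from luciferase under RARE control in C3RL4 cells; compound exposure lasts 6 hr at 37 C in 5% CO2, and luminescence is recorded following a 30 min room-temperature incubation with reagent.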

[7] = target: Thyrotropin receptor (Homo sapiens) (UniProt P16473); experiment: qHTS assay to identify small molecule agonists of the thyroid stimulating hormone receptor (TSHR) signaling pathway (AID 1224843); settings: TSHR-HEK293 cells, cAMP HTRF, agonist mode, 30 min; activation: at 92.4 µM (top of the series); note: nearly all actives have a fitted effect of over 45% in size; note: potency is the fitted concentration of half-maximal effect
[8] = qHTS assay to identify small molecule agonists of the hypoxia (HIF-1) signaling pathway (AID 1224846; active = well fitted activation curve with a large enough effect in the signal ratio in the repeat runs, not every such curve was filed as active; inconclusive = weak or mixed curves; the % refers to the signal ratio; note: potency is the fitted concentration of half-maximal effect); settings: HRE-bla ME-180 cells, beta-lactamase ratio, 17 h
Outline: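 A low-serum medium (0.5% dialyzed FBS) holding 2,000 HRE-bla ME-180 cells per well is preincubated for 5 hrs, dosed with compounds by pintool, and kept a further 17 hrs at 37C, 5% CO2 before CCF4-AM FRET detection of beta-lactamase.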

[9] = target: Voltage-gated inwardly rectifying potassium channel KCNH2 (Homo sapiens) (UniProt Q12809); experiment: Human Ether-a-go-go-Related Gene (hERG) channel small molecule antagonists: fluorescence cell-based qHTS assay (AID 1671200; active = well fitted curve in the direction sought with a large enough effect in the repeat runs; inconclusive = weak or mixed curves; inactive = no such curve, though single readings can be large; an effect the other way counts as inactive or inconclusive; note: potency is the fitted concentration of half-maximal effect; nearly all actives have a fitted effect of over 50% in size); settings: hERG-U2OS cells, FluxOR thallium flux fluorescence
Outline: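 Thallium flux as potassium surrogate: FluxOR II dye loaded 1 h at room temperature into hERG-expressing U2OS cells, then stimulus buffer added after 10 min. Kinetic 480 nm excitation/540 nm emission read, 2 min.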

[10] = target: Cytochrome P450 2C19 (Homo sapiens) (UniProt P33261); experiment: Cytochrome P450 Family 2 Subfamily C Member 19 (CYP2C19) small molecule antagonists: luciferase reporter qHTS assay (AID 1671197; active = well fitted curve in the direction sought with a large enough effect in the repeat runs; inconclusive = weak or mixed curves; inactive = no such curve, though single readings can be large; an effect the other way counts as inactive or inconclusive; note: potency is the fitted concentration of half-maximal effect; nearly all actives have a fitted effect of over 65% in size); settings: P450-Glo CYP2C19 enzyme, luciferin luminescence, 1 h
Outline: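 CYP2C19 P450-Glo, 1536-well qHTS. Cpd + enzyme/proluciferin substrate 10 min RT; + NADPH regen, 37C 1 h; stop with luciferin detection reagent, 20 min RT, luminescence (RLU). Pos ctrl ketoconazole.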

[11] = qHTS assay for small molecule agonists of the p53 signaling pathway (AID 651631); settings: HCT-116 p53RE-bla reporter, beta-lactamase FRET ratio, 16 h; activation: at 73.3 µM (top of the series); note: nearly all actives have a fitted effect of over 15% in size; note: potency is the fitted concentration of half-maximal effect; for activation: % is set by controls: 0 for no effect and ±100 for the full control effect
Outline: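 Readout was fluorescence from the LiveBLAzer FRET substrate, applied for 2 h at room temperature after 16 h compound exposure at 37 °C. Cells were the p53RE-bla HCT-116 line, with beta-lactamase driven by p53 response elements.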

[12] = qHTS assay for small molecule agonists of the antioxidant response element (ARE) signaling pathway (AID 743202; active = well fitted activation curve with a large enough effect in the signal ratio in the repeat runs, not every such curve was filed as active; inconclusive = weak or mixed curves, or effect the other way; inactive = no such curve, though single readings can be large or run the other way; the % refers to the signal ratio; note: % is set by controls: 0 for no effect and ±100 for the full control effect); settings: HepG2 ARE-bla reporter, beta-lactamase FRET, 16 h; activation: at 73.3 µM (top of the series)
Outline: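 Read-out: LiveBLAzer B/G FRET substrate fluorescence after 2 h at room temperature, following 16 h compound treatment at 37 C of HepG2 cells carrying an ARE-driven beta-lactamase reporter.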

[13] = target: Vitamin D3 receptor (Homo sapiens) (UniProt P11473); experiment: qHTS assay to identify small molecule agonists of the vitamin D receptor (VDR) signaling pathway (AID 743222); settings: HEK293T VDR-UAS-bla, beta-lactamase FRET ratio, 16 h; activation: at 63.5 µM (top of the series); note: potency is the fitted concentration of half-maximal effect
Outline: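 In VDR-bla cells, compound-induced beta-lactamase expression is quantified by FRET substrate fluorescence. Treatment lasts 16 h at 37C; substrate develops 2 h at room temperature.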

[14] = target: Vitamin D3 receptor (Homo sapiens) (UniProt P11473); experiment: qHTS assay to identify small molecule antagonists of the vitamin D receptor (VDR) signaling pathway (AID 743223; active = well fitted inhibition curve with a large enough effect in the signal ratio in the repeat runs, not every such curve was filed as active; inconclusive = weak or mixed curves, or effect the other way; inactive = no such curve, though single readings can be large or run the other way; the % refers to the signal ratio; note: % is set by controls: 0 for no effect and ±100 for the full control effect); settings: VDR-UAS-bla HEK293T, beta-lactamase FRET ratio, 16 h; activity change, negative = inhibition: at 61 µM (top of the series)
Outline: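 Antagonist mode: compound added to VDR-bla cells alongside agonist 1alpha,25-dihydroxyvitamin D3 (3 nM final), incubation 16 h at 37C. Read-out is LiveBLAzer FRET fluorescence, 2 h at room temperature.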

[15] = qHTS assay to identify small molecule agonists of the NFkB signaling pathway - cell viability counter screen (AID 1159515); settings: NFkB-bla ME-180 viability, CellTiter-Glo luminescence, 5 h; note: potency is the fitted concentration of half-maximal effect; nearly all actives have a fitted effect of over 55% in size
Outline: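 Using the same wells as the NFkB reporter read, ME-180 NFkB-bla cells given compounds for 5 hr were assessed for viability via CellTiter-Glo, with luminescence taken after a 30 min room-temperature incubation.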

[16] = qHTS assay to identify small molecule agonists of the endoplasmic reticulum stress response signaling pathway (AID 1159516; active = well fitted activation curve with a large enough effect in the signal ratio in the repeat runs, not every such curve was filed as active; inconclusive = weak or mixed curves, or effect the other way; the % refers to the signal ratio; note: potency is the fitted concentration of half-maximal effect); settings: ESRE-bla HeLa, ER stress beta-lactamase reporter, 5 h
Outline: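 An ESRE-bla HeLa cell assay: compounds were pin-transferred from DMSO onto overnight-plated cells and left 5 hr at 37 C. Substrate was then loaded for 2 hr at room temperature before reading fluorescence at 460 nm and 530 nm.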

[17] = qHTS assay to identify small molecule antagonists of the estrogen related receptor signaling pathway with the pleiotropic PPARgamma coactivator (PGC) from Tox21 10K library (AID 1224841; call rule not given here; note: potency is the fitted concentration of half-maximal effect; actives are mostly falling curves and most rising ones were filed inactive; nearly all actives have a fitted effect of over 50% in size); settings: PGC/ERR reporter cell line, ONE-Glo luciferase, 18 h
[18] = qHTS assay to identify small molecule agonists of the TGF-beta/Smad signaling pathway - cell viability counter screen (AID 1346829; active = well fitted curve in the direction sought with a large enough effect in the repeat runs; inconclusive = weak or mixed curves; inactive = no such curve, though single readings can be large; an effect the other way counts as inactive or inconclusive; note: potency is the fitted concentration of half-maximal effect; nearly all actives have a fitted effect of over 45% in size); settings: SBE-bla HEK293T viability, CellTiter-Glo luminescence, 5 h
Outline: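 Luminescence from CellTiter-Glo, read after a 30 min room-temperature incubation, gives cell viability of SBE-bla HEK 293T cells treated 5 hr with compounds at 37 C.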

[19] = target: Cytochrome P450 1A2 (Homo sapiens) (UniProt P05177); experiment: Cytochrome P450 Family 1 Subfamily A Member 2 (CYP1A2) small molecule antagonists: luciferase reporter qHTS assay (AID 1671199; active = well fitted curve in the direction sought with a large enough effect in the repeat runs; inconclusive = weak or mixed curves; inactive = no such curve, though single readings can be large; an effect the other way counts as inactive or inconclusive; note: potency is the fitted concentration of half-maximal effect; nearly all actives have a fitted effect of over 50% in size); settings: P450-Glo CYP1A2 enzyme, luciferin luminescence, 1 h
[20] = qHTS assay for identifying genotoxic compounds that show differential cytotoxicity against isogenic chicken DT40 cell lines with known DNA damage response pathways - wild type cell line (AID 743012; active = well fitted curve in the direction sought with a large enough effect in the repeat runs; inconclusive = weak or mixed curves; inactive = no such curve, though single readings can be large; an effect the other way counts as inactive or inconclusive; note: potency is the fitted concentration of half-maximal effect; nearly all actives have a fitted effect of over 60% in size); settings: DT40 wild type chicken cells viability, CellTiter-Glo, 40 h
Outline: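 First, wild type DT40 cells were plated at 300 per well and equilibrated about 0.5 h at 37 C/5% CO2. Next, compounds in DMSO were added and exposure lasted 40 h. Finally, CellTiter-Glo was added for 30 min at room temperature and luminescence recorded.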

[21] = target: Cytochrome P450 2C9 (Homo sapiens) (UniProt P11712); experiment: Cytochrome P450 Family 2 Subfamily C Member 9 (CYP2C9) small molecule antagonists: luciferase reporter qHTS assay (AID 1671198; active = well fitted curve in the direction sought with a large enough effect in the repeat runs; inconclusive = weak or mixed curves; inactive = no such curve, though single readings can be large; an effect the other way counts as inactive or inconclusive; note: potency is the fitted concentration of half-maximal effect; nearly all actives have a fitted effect of over 50% in size); settings: P450-Glo CYP2C9 enzyme assay, luciferin luminescence
Outline: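 CYP2C9 activity was measured with a P450-Glo proluciferin substrate. Enzyme–substrate mix was held with compound for 10 min at room temperature, then NADPH regeneration solution was added for 1 h at 37C. Luciferin product was read as luminescence.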

[22] = qHTS assay for identifying genotoxic compounds that show differential cytotoxicity against isogenic chicken DT40 cell lines with known DNA damage response pathways - Rev3 mutant cell line (AID 743014; active = well fitted curve in the direction sought with a large enough effect in the repeat runs; inconclusive = weak or mixed curves; inactive = no such curve, though single readings can be large; an effect the other way counts as inactive or inconclusive; note: % is set by controls: 0 for no effect and ±100 for the full control effect; nearly all actives have a fitted effect of over 55% in size); settings: chicken DT40 Rev3-/- viability, CellTiter-Glo, 40 h; activity, negative = cytotoxicity: at 68.4 µM (top of the series)
[23] = target: Bile acid receptor (Homo sapiens) (UniProt Q96RI1); experiment: qHTS assay to identify small molecule antagonists of the farnesoid-X-receptor (FXR) signaling pathway (AID 743217; active = well fitted inhibition curve with a large enough effect in the signal ratio in the repeat runs, not every such curve was filed as active; inconclusive = weak or mixed curves, or effect the other way; inactive = no such curve, though single readings can be large or run the other way; the % refers to the signal ratio; note: potency is the fitted concentration of half-maximal effect; for activity change, negative = inhibition: % is set by controls: 0 for no effect and ±100 for the full control effect); settings: HEK293T FXR-UAS-bla, beta-lactamase ratio, CDCA-stimulated, 16 h; activity change, negative = inhibition: at 81.1 µM (top of the series)
Outline: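 GeneBLAzer FXR-UAS-bla HEK 293T, CDCA-stimulated (50 uM final). Compound treatment 16 h, 37 °C. Detection: beta-lactamase cleavage of B/G FRET substrate, fluorescence.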

[24] = qHTS assay to identify small molecule antagonists of the vitamin D receptor (VDR) signaling pathway - cell viability counter screen (AID 743225; active = well fitted curve in the direction sought with a large enough effect in the repeat runs; inconclusive = weak or mixed curves; inactive = no such curve, though single readings can be large; an effect the other way counts as inactive or inconclusive); settings: VDR-bla HEK293T viability, CellTiter-Glo luminescence, 16 h
Outline: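 Cytotoxicity counter screen read by CellTiter-Glo luminescence (30 min, room temperature) in the same wells as the VDR-bla antagonist readout. HEK 293T VDR-UAS-bla cells had 16 h at 37C with compound and 3 nM (final) 1-alpha,25-dihydroxyvitamin D3, then 2 h with FRET substrate.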

[25] = qHTS assay to identify small molecule agonists of the RXR signaling pathway - cell viability counter screen (AID 1159529; active = well fitted curve in the direction sought with a large enough effect in the repeat runs; inconclusive = weak or mixed curves; inactive = no such curve, though single readings can be large; an effect the other way counts as inactive or inconclusive); settings: RXR-alpha-bla HEK293T viability, CellTiter-Glo, 16 h
Outline: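 CellTiter-Glo luminescence gave viability in the wells also read for beta-lactamase. Cells (RXR-alpha-UAS-bla HEK 293T, 2% charcoal-stripped FBS medium) had 5 hr plating, then 16 hr compound exposure at 37 C; tetraoctyl ammonium bromide served as positive control.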

[26] = target: Estrogen receptor beta (Homo sapiens) (UniProt Q92731); experiment: qHTS assay to identify small molecule agonists of the estrogen receptor beta (ER-beta) signaling pathway (AID 1259377; active = well fitted activation curve with a large enough effect in the signal ratio in the repeat runs, not every such curve was filed as active; inconclusive = weak or mixed curves, or effect the other way; the % refers to the signal ratio; note: potency is the fitted concentration of half-maximal effect); settings: ER-beta-UAS-bla HEK293T, beta-lactamase FRET ratio, 16 h; activation: at 92.4 µM (top of the series)
[27] = target: Thyrotropin-releasing hormone receptor (Homo sapiens) (UniProt P34981); experiment: qHTS assay to identify small molecule antagonists of the thyrotropin-releasing hormone receptor (TRHR) signaling pathway (AID 1346877; active = well fitted inhibition curve with a large enough effect in the repeat runs, not every such curve was filed as active; inconclusive = weak or mixed curves; note: potency is the fitted concentration of half-maximal effect); settings: TRHR-HEK293, TRH-induced calcium fluorescence, antagonist mode

O=C(OC1CN2CCC1CC2)c1ccccc1 (stereo not given)
inconclusive: Potency [1] 0.107 µM

N#CSc1ccc([N+](=O)[O-])cc1[N+](=O)[O-]
inconclusive: Potency [2] 49 µM | Potency [3] 10.9 µM | Potency [4] 11 µM | Potency [5] 7.76 µM | Potency [6] 12.2 µM | Potency [7] 3.06 µM | Potency [8] 11 µM | Potency [9] 49 µM

O=C(Cl)Oc1ccccc1
inconclusive: Potency [10] 89.4 µM

CCCCO[P+](=O)OCCCC
inconclusive: activation [11] -2.77% | activation [12] 3.13% | Potency [13] 2.75 µM | activity change, negative = inhibition [14] 11.8% | Potency [15] 6.16 µM | Potency [16] 21.9 µM | Potency [17] 12.1 µM | Potency [18] 61.2 µM | Potency [10] 31.7 µM | Potency [19] 62.8 µM

CCCCC(CC)CO[P+](=O)OCC(CC)CCCC (stereo not given)
inconclusive: Potency [11] 2.73 µM | Potency [20] 68.6 µM | Potency [16] 21.9 µM | Potency [21] 39.9 µM

O=C1C2CC=CCC2C(=O)N1SC(Cl)(Cl)C(Cl)Cl (stereo not given)
inconclusive: activity, negative = cytotoxicity [22] -106% | Potency [3] 1.38 µM and 486 nM | Potency [23] 5.49 µM | activity change, negative = inhibition [23] 8.69% | Potency [24] 9.84 µM | Potency [4] 44 µM and 9.77 µM | Potency [25] 11 µM | activation [7] 9.64% | Potency [26] 38.8 µM | activation [26] -9.74% | Potency [27] 27.1 µM
